{"sequences": {"note": "Chains of the proteins cited; added tags and fusions are not shown. Residues count along the entry.", "UniProt O14744, whole entry R49D": "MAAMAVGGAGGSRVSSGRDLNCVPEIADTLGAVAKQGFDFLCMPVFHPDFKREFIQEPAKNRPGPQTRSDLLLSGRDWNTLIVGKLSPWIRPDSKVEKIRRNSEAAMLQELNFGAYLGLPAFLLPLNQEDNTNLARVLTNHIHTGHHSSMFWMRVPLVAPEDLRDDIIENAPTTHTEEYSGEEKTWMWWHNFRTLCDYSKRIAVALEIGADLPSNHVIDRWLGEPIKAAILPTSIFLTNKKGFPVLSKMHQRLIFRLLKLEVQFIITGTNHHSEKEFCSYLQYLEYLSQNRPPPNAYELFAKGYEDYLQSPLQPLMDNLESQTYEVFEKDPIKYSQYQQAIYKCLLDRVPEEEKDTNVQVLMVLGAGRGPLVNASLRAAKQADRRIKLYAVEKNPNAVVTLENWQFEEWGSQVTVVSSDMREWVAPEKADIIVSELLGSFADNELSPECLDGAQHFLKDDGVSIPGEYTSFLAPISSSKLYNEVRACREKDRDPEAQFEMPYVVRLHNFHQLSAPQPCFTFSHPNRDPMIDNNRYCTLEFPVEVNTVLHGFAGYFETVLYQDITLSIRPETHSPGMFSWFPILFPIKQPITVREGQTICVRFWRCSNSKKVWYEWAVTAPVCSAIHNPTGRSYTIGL", "UniProt O14744, 2-637": "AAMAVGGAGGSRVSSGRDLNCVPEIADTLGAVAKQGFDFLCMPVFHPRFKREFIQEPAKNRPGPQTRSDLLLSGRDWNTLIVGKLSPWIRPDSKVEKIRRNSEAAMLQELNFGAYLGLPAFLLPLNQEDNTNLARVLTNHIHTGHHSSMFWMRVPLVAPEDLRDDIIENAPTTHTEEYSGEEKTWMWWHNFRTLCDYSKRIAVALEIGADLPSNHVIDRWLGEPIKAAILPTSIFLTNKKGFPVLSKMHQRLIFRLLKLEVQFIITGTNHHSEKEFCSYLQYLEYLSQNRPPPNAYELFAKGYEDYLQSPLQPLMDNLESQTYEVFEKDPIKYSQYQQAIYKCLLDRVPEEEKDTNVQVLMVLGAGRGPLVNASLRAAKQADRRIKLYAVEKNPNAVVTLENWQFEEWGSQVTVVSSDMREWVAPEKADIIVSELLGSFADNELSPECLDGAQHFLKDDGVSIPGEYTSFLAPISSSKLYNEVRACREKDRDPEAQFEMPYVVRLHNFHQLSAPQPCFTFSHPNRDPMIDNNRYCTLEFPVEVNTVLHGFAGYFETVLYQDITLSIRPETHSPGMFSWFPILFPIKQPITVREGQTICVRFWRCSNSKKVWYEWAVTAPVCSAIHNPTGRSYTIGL", "UniProt O14744, whole entry R49A": "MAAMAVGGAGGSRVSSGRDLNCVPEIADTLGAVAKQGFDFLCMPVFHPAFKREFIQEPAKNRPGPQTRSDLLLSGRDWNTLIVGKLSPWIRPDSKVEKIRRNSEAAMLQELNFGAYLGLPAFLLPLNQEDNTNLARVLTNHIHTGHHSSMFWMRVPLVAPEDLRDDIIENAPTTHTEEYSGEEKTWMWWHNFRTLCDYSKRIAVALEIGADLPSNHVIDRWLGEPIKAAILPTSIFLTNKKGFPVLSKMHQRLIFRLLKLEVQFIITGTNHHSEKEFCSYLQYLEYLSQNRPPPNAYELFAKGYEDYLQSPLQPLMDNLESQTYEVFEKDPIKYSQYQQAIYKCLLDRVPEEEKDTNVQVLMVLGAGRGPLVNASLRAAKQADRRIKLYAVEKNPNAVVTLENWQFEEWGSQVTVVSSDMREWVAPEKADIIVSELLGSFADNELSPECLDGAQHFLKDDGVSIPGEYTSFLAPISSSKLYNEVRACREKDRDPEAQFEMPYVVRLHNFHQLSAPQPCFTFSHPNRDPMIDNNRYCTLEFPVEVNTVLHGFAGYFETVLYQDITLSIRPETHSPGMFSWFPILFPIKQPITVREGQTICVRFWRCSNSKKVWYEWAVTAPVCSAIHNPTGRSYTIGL", "UniProt O14744, whole entry R49G": "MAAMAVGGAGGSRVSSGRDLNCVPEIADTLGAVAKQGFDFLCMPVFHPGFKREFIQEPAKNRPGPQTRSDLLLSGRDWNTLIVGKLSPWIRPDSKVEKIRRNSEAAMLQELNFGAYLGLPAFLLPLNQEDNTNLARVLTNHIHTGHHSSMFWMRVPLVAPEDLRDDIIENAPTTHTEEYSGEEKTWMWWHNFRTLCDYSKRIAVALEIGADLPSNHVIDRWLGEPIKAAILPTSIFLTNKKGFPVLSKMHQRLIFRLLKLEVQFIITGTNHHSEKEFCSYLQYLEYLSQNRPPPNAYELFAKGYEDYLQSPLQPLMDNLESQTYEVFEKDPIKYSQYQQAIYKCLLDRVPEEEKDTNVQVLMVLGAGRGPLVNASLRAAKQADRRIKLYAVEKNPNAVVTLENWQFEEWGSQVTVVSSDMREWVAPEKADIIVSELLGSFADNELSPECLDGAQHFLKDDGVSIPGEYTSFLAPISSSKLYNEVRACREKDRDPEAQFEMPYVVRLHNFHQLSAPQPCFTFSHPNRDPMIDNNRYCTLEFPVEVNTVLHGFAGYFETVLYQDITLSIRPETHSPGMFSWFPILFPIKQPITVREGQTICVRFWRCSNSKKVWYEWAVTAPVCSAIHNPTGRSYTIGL"}, "source": "paper PMC11167723", "assay_in_all_cases": "split reporter", "key": {"[1]": {"biological_target": "Myc-VN-PRMT5 R49D BiFC fusion (UniProt O14744)"}, "[2]": {"biological_target": "Myc-VN-PRMT5 (wild type) BiFC fusion (UniProt O14744)"}, "[3]": {"biological_target": "Myc-VN-PRMT5 R49A BiFC fusion (UniProt O14744)"}, "[4]": {"biological_target": "Myc-VN-PRMT5 R49G BiFC fusion (UniProt O14744)"}}, "data": [{"substance": "HA-VC-MEP50 (wild type) BiFC fusion (from UniProt Q9BQA1 2-342) (natural protein)", "values": [{"measurement": "decrease of interaction (BiFC efficiency) against wild type", "setting": "[1]", "value": "> 70", "unit": "%"}, {"measurement": "% inhibition of BiFC efficiency by compound 8 at 0.25 uM", "setting": "[2]", "value": 41, "unit": "%"}, {"measurement": "% inhibition of BiFC efficiency by compounds 12, 4, 3 and 10 at 10 uM", "setting": "[2]", "value": "24 to 35", "unit": "%"}, {"measurement": "decrease of interaction (BiFC efficiency) against wild type", "setting": "[3]", "value": "> 70", "unit": "%"}, {"measurement": "decrease of interaction (BiFC efficiency) against wild type", "setting": "[4]", "value": "> 70", "unit": "%"}]}, {"substance": "HA-VC-MEP50 D99A BiFC fusion (from UniProt Q9BQA1 2-342) (natural protein)", "values": [{"measurement": "decrease of interaction (BiFC efficiency) against wild type", "setting": "[2]", "value": "> 70", "unit": "%"}]}, {"substance": "HA-VC-MEP50 D99G BiFC fusion (from UniProt Q9BQA1 2-342) (natural protein)", "values": [{"measurement": "decrease of interaction (BiFC efficiency) against wild type", "setting": "[2]", "value": "> 70", "unit": "%"}]}, {"substance": "HA-VC-MEP50 D99R BiFC fusion (from UniProt Q9BQA1 2-342) (natural protein)", "values": [{"measurement": "decrease of interaction (BiFC efficiency) against wild type", "setting": "[2]", "value": "> 70", "unit": "%"}]}, {"substance": "HA-VC-MEP50 ΔS50-W54 deletion mutant BiFC fusion (from UniProt Q9BQA1 2-342) (natural protein)", "values": [{"measurement": "decrease of interaction (BiFC efficiency) against wild type", "setting": "[2]", "value": 50, "unit": "%"}]}]}
